Target: human D3 receptor (Homo sapiens, UniProt P35462)

The chains behind the UniProt entries cited, without tags or fusion partners.
UniProt P35462, whole entry: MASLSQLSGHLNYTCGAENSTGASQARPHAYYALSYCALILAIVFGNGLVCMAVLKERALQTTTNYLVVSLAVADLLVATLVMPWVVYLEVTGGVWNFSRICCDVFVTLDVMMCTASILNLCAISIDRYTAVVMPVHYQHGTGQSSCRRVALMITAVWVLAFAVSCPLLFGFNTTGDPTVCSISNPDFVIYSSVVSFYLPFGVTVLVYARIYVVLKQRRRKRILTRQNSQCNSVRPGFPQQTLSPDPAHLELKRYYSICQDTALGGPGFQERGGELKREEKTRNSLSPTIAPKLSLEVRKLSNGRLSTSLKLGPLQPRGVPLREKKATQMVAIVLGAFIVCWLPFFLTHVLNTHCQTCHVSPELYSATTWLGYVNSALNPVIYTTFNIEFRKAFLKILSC

CCCN(CCC)C1CCc2c(O)cccc2C1 (single isomer, unassigned; (-)) [(−)-5-OH-DPAT, 5-OH-DPAT]
Emax: 75 ± 4%

Reference: paper PMC9898996 (Bioorganic & medicinal chemistry, 2022)
